The test system of this data set is patients with HER2-positive MBC. Format: in vivo, human. An excerpt: Twenty-four patients were enrolled on the every-3-week dosing schedule, and 28 patients were enrolled on the weekly schedule. Prior to enrollment, patients had received nearly 2 years of trastuzumab (a median of 92 weeks for patients enrolled on the every-3-week schedule and 122 weeks for patients enrolled on the weekly schedule). The median number of prior chemotherapy agents for metastatic disease received by patients enrolled in this study was four for patients treated every 3 weeks and five for patients treated weekly.
Available data from the Phase I study are summarized below for all patients on both schedules. […] The most common (i.e., >25%) Grade ≧2 adverse events reported for patients on either schedule were thrombocytopenia, nausea (weekly schedule), fatigue, and headaches. The only Grade 4 events reported to date have been transient and reversible thrombocytopenia occurring in one patient at the 2.4 mg/kg weekly dosing schedule and in two patients at the 4.8 mg/kg every-3-week dosing schedule. […] One serious adverse event (pulmonary hypertension) was considered possibly related to study drug. All other reported serious adverse events were not considered to be drug related. […]

Entries after “also recorded” stand apart in the source; their conditions may differ.

Regarding T-DM1, where the note is “4.8 mg/kg every 3 weeks, 3 patients treated”, the “patients with transient Grade 4 thrombocytopenia” value was “two and Two”. Further, where the note is “either schedule”, the drug-related cardiac toxicity entry is given as “No cardiotoxicity has been observed; also recorded: No drug-related cardiac toxicity”.

Values taken from patent US20140044709A1, “TREATMENT OF HER2-POSITIVE CANCER WITH PACLITAXEL AND TRASTUZUMAB-MCC-DM1” (priority 2010, published 2014).
